The values that follow are results of earlier work, collected in patent US20040249133A1, “Use of lipopeptides or lipoproteins for treating lung infections and lung tumours” (priority 2000, published 2004).

The subject of this series is tumour metastases in the lungs. As to conditions: inhalational administration; cited from earlier work.

With “interleukin-2: lymphokine interleukin-2, inhalational administration”, the side-effects entry was “low level of side-effects” and the “tumour metastases in the lungs” value is on record as “reduction of tumour metastases in the lungs”.
